# scFv variants of Ab-14 (heavy chain) against a SARS-CoV-2 spike peptide

The target is the same throughout: PDVDLGDISGINAS, from the HR2 region of SARS-CoV-2 spike.

Parent scFv Ab-14: VH joined to VL by a 15-residue (Gly4Ser)3 linker. Changes lie in the heavy chain CDRs alone.
VH: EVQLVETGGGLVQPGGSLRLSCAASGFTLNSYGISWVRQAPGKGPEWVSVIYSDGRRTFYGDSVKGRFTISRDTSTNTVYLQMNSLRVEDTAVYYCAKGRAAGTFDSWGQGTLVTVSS
VL: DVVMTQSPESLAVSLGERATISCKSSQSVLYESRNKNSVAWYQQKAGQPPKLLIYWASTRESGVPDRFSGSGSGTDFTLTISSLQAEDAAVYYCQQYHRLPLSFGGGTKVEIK

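The parent was found by panning a naive human phage display library on the peptide. These sequences belong to a second round, designed from the earlier measurements on random variants of the parent. Their group label is 14H_Ctrl (Ctrl: baseline library sampled from a position-specific scoring matrix, with some repeated check sequences). The assay is AlphaSeq: two haploid yeast populations carry antibody and antigen on their surface. The frequency of each diploid, read from paired DNA barcodes, reflects how well the two displayed proteins bind. A regression on co-assayed BCL2-family reference pairs converts the normalised counts of each replicate to an apparent Kd. Mating was done six times.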

Each variant is given by its three heavy chain CDRs, as the data file delimits them; those of the parent are GFTLNSYGIS, VIYSDGRRTFYGDSVK, GRAAGTFDS. Affinities are written as log10 Kd with Kd in nM; a lower number is a better binder. An entry "nd" has no value in the source: the pair was not observed among the diploids in that replicate. This suggests poor binding but is not conclusive.

CDR-H1	CDR-H2	CDR-H3	replicates, log10 nM	control signals
GQRLNSYGIS	VIYSDGYRTFYGDSVK	GRAAGTFDS	nd / nd / nd / nd / nd / nd	0 of 18
GFTLNSYGRS	VIYSDGRRTFYADSVK	GKAAGTFDS	nd / nd / nd / nd / nd / nd	0 of 18
GFTLNKYGIS	VIYADGRRTFYQDSVK	GRAAGTTDS	nd / nd / nd / nd / nd / nd	0 of 18
GFTNNSYGIS	VMYSDGRRTFYGDSVK	GRAAGTFDS	nd / 1.69 / nd / nd / 2.05 / nd	0 of 18
GFTLNSYGIS	VIYSDGRRTFYGDSFK	GRAAGTFML	nd / nd / nd / nd / nd / nd	0 of 18
GFTLNSYGIS	VIYSDGERTFYGDSVK	GRQAGTFDS	nd / nd / 1.41 / nd / nd / nd	0 of 18
GFTINEYGIS	VIYSDGRRTFYGDSVK	GRAAGTKDS	nd / nd / nd / nd / nd / nd	0 of 18
GFHLQEYGIS	VIYSDGRRTFYGDSVK	GRAAGTFDS	0.97 / 0.99 / 0.31 / 0.64 / 1.24 / 1.35	1 of 18 (2.16)
GFTLNSYGIS	VIYSDGQRTFYGDQVK	GREAGKFDS	nd / nd / nd / nd / nd / nd	0 of 18
GFTLNSYGIS	VIYSDGRRTFYSDSVK	GRAAGTGDS	nd / nd / nd / nd / nd / nd	0 of 18
GFALNSYGIS	VIYSDGMRTFYGDSVK	GRAAGTFDS	1.92 / 1.35 / nd / 1.42 / 1.98 / 2.39	2 of 18 (1.90)
GFTLNKYGIS	VIYSDGRRTQYGDSVK	GRAGGTFDS	nd / nd / nd / nd / nd / nd	0 of 18
GFSLNSYGIS	VIYSDGRRTFYSDSVK	GRAAGTFDT	0.01 / -0.01 / -0.23 / -0.35 / 0.02 / -0.25	0 of 18
GFTLNDYGIS	VIYSDGRRTFYGGSVK	GNAGGTFDA	2.01 / nd / 1.31 / 2.41 / 1.59 / 1.98	0 of 18
GDTLDSYGIS	VIYSDGRRTFYIDSVK	GRAAGTFDS	nd / 0.96 / 0.40 / nd / nd / nd	0 of 18
GFTLNSYGIS	VIYSDGRRTWTGDSVK	GRAPGTFDS	2.86 / nd / 1.43 / nd / 1.85 / 2.45	0 of 18
GFTLNSYGIS	VIYSDGRRTFYGDSVK	GAAAGDFDS	nd / nd / nd / nd / nd / nd	0 of 18
GFDLDEYGIS	VIYSDGRRTAYGDSVK	GGAAGSFNS	1.14 / 1.98 / 1.64 / 1.79 / 1.18 / 1.30	1 of 18 (3.93)
DFTLNSYGIS	VIYSDGRRTFYGDSYK	GDAAGTFDS	nd / nd / nd / nd / nd / nd	0 of 18
GFTLNSYGIS	VIYSDGQRTAYGDSVK	GRAAGTFDS	1.60 / 1.04 / 1.71 / 1.41 / 1.58 / 2.45	0 of 18
GDTLGSYGIS	VIYSDGRRTFYGDSVK	GRAAGTFDS	2.20 / nd / 2.28 / nd / nd / nd	0 of 18
GFTLNSYGIS	VIYSDGRRTFYDDSVK	GQAAFTFSS	nd / nd / nd / nd / nd / nd	0 of 18
GFTLNSYGIS	VIYSDGRRTAYGDSVK	GQNALTFDS	3.14 / nd / 1.14 / 1.18 / 1.17 / nd	1 of 18 (3.85)
GFSLESYGIS	VIYSDGRRTFYGDSVK	GRAYGTFDS	nd / nd / nd / nd / nd / nd	0 of 18
KFTLNSYGIS	VIYSDGRRTFYGDAVK	GGWAGTFDS	nd / nd / nd / nd / nd / nd	0 of 18
GFGLESYGIS	VIYSDGRRTFYEDSVK	GTAAGTFDS	0.38 / 0.61 / 0.57 / 0.28 / 0.13 / 0.71	0 of 18
DFTLNSYGIS	VIYSDGRRTFYSDSVK	GDAAGTFDS	0.91 / 2.75 / nd / 1.20 / 1.48 / 2.53	0 of 18
GFPLNSYGIS	VIYSDGRRTFYGDSVK	GREAGTFDS	0.39 / 0.51 / 0.05 / 0.77 / 0.26 / 0.84	0 of 18
GFTLNSYGIS	VIYSDGRRTFYGDSYK	GRAGGTFDS	nd / nd / nd / nd / nd / nd	0 of 18
GFTLNSYGIS	VIYADGRRTFYKDSVK	GRAAGTFDS	0.87 / nd / 1.02 / nd / -0.17 / 0.60	0 of 18
GFTLNSYGIS	VIYSDGRRTFNGDSVK	GRAAGSFDS	nd / nd / nd / nd / nd / nd	0 of 18

A selection of 4 entries from above:

CDR-H1,CDR-H2,CDR-H3,"replicates, log10 nM",control signals
GFSLNSYGIS,VIYSDGRRTFYSDSVK,GRAAGTFDT,0.01 / -0.01 / -0.23 / -0.35 / 0.02 / -0.25,0 of 18
GFTLNSYGIS,VIYADGRRTFYKDSVK,GRAAGTFDS,0.87 / nd / 1.02 / nd / -0.17 / 0.60,0 of 18
GFTLNSYGIS,VIYSDGQRTAYGDSVK,GRAAGTFDS,1.60 / 1.04 / 1.71 / 1.41 / 1.58 / 2.45,0 of 18
GFTLNSYGIS,VIYSDGERTFYGDSVK,GRQAGTFDS,nd / nd / 1.41 / nd / nd / nd,0 of 18

Values of this round are not directly comparable with the first-round values of the same sequences. The authors averaged sequences with at least three values out of six and counted those with two or fewer as poor binders. Nonspecific signal, from three strains lacking the peptide, appeared in 1% of pairings of all heavy chain designs, centred on 2.08 (5% of these signals below 0.84); values are not corrected for it. Also given: how often the same scFv was detected with the empty control strains, with their mean in brackets.

The measurements come from Li et al. 2023 (doi:10.1038/s41467-023-39022-2) through the FLAb antibody collection.